Values quoted from earlier work, collected in US20100150842A1, “Method and Kit for Detecting Resistance in Living Organisms” (priority 2007, published 2010).

Tested on: fish and aquatic invertebrates
Settings: if it reaches water bodies; cited from earlier work

## N#Cc1cc(Br)c(O)c(Br)c1 [Bromoxynil]
  toxicity to fish and aquatic invertebrates: toxic
